# Test results as given in PubChem BioAssay AID1259400 (National Center for Advancing Translational Sciences (NCATS), 2018).
# By UniProt entry, the sequences of proteins in these tests, tags left out.
# UniProt Q9HBX9, whole entry: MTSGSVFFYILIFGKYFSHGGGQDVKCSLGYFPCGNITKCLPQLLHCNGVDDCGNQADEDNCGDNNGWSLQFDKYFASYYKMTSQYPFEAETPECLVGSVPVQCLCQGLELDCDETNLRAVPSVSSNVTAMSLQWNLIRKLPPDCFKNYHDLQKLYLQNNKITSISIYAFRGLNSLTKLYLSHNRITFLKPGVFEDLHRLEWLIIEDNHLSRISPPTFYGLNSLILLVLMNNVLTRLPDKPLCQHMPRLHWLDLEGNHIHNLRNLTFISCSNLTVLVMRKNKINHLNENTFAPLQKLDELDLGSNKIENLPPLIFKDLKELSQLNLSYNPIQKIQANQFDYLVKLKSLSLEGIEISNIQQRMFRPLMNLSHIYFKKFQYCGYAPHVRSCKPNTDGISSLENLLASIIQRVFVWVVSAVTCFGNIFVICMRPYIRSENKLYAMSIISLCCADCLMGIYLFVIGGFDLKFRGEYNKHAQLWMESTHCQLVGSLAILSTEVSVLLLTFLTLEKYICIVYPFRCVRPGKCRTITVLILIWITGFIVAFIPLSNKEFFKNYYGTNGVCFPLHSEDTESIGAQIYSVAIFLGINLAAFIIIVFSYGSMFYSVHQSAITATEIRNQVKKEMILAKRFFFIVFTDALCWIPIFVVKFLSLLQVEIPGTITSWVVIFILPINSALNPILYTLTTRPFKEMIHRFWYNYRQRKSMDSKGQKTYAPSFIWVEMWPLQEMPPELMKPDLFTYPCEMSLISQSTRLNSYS
# This is a selection; strong and weak results do not stand in their true shares. Calls of active or inactive are those of the source.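 The calls were made as follows: active = activity change of -60% or lower, but not beyond a set lower limit; inconclusive = change between -60% and -40%, or beyond the set limit; inactive = change above -40%.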
# Molecular target: Relaxin receptor 1 (Homo sapiens) (UniProt Q9HBX9)
# Assay: qHTS Assay for Antagonists of the Relaxin Receptor RXFP1
# Conditions: HEK293-RXFP1, relaxin-stimulated cAMP HTRF, 30 min; at 57.5 µM; hits give low values
# Text: The relaxin hormone is involved in the variety of biological functions in normal tissues and diseases. The role of relaxin is well-established in female reproduction and parturition, mammary gland and endometrial development, maintenance of myometrial quiescence during pregnancy. Relaxin signaling through its G protein-coupled receptor (GPCR) RXFP1 results in ECM remodeling through regulation of collagen deposition, cell invasiveness, proliferation and overall tissue homeostasis. […] Recombinant human relaxin (rhRlx) is currently being tested in clinical trials as a protective agent in congestive heart failure, in treating severe preeclampsia, and as an anti-fibrotic agent in various organs. […] Upon relaxin binding RXFP1 activation leads to the activation of adenylate cyclase (AC) via G?s. cAMP will activate PKA, which phosphorylates many signaling proteins. Thus, detection of cAMP increase is an easy and reliable indication of relaxin receptor activation. To screen for antagonists of the relaxin receptor, a HEK293T cell line stably transfected with RXFP1 was used. RXFP1 activation by relaxin in presence of various concentrations of tested compounds was assayed by changes in cAMP levels as detected with a time-resolved fluorescence energy transfer (TR-FRET) cAMP detection kit.
# For the primary screening, we used HTRF(R) (Homogenous Time-Resolved Fluorescence) cAMP HiRange assay (Cisbio Bioassays, 62AM6PEJ). Presence of cAMP in the cell lysate disrupts binding between the Cryptate-labeled anti-cAMP and d2-labeled cAMP pair, leading to a decrease in TR-FRET signal. The libraries were screened at two doses (57microM and 11microM), followed by a confirmation of the hits at 7-point serial dilution in the range of final concentrations [57microM - 78nM]. Data were normalized to the controls for basal activity (buffer only) and 100% activity (5 nM porcine relaxin). The EC50 values were determined from concentration-response data modeled with the standard Hill equation. NCGC Assay Protocol Summary: HiHEK (Hawaiian HEK293 LGR7 stably transfected with human RXFP1) were grown in the following media: DMEM+10%FBS+Pen/Strep + Geneticin (1mg/ml). For the assay, the cells were seeded in DMEM+Pen/Strep (with no serum & selective antibiotics) at 2,100 cells/ 3microl/well with MultiDrop Combi dispenser (Thermo Scientific, Logan, UT) onto white tissue culture treated solid bottom1536-well plates (Greiner #789173-F) and allowed to attach/recover overnight at 37 degrees C, 5% CO2. Next, 23nl/well of compound solutions in DMSO were transferred into wells with a pintool (Kalypsis, San Diego, CA). […] EC80 (relaxin at 50pM final concentration) was dispensed to the rest of the plate except columns 1&2 which were used as a negative control (EC0, buffer only), 1microl/well also. The cells were stimulated by relaxin in the presence of compounds for 30 minutes at 37 degrees C, 5% CO2. The detection reagents were prepared individually by dilution in Lysis buffer (supplied with the assay kit) just prior to dispensing. 1microl/well of cAMP-d2 and 1microl/well anti-cAMP-Eu3+-Cryptate antibodies were added simultaneously with BioRAPTR FRDtrade mark Workstation (Beckman Coulter). The plates were incubated at ambient temperature for 30 minutes and, then, FRET signal was read on Envision plate reader (PerkinElmer, Waltham, MA), at wavelengths 340nm (excitation), 615nm & 665nm (emission of donor and acceptor channels respectively).
# % is scaled to controls: 0 for no effect and ±100 for the full control effect.
row,SMILES,"activity change, negative = inhibition"
1,COc1cc(C(=O)NCC2(N(C)C)CCCCC2)ccc1OC(F)F,inactive: 17%
2,CCOC(=O)N1CCC(Nc2cccc(C)c2)CC1,inactive: -5.8%
3,CCOC(=O)N1CCC(Nc2ccc(F)cc2)CC1,inactive: 10.2%
4,COc1ccc(NC2CCN(CCc3ccccc3)CC2)c(OC)c1,inactive: 0.893%
5,O=C(NCC1(N2CCCCC2)CCCCC1)c1ccc(F)cc1,inactive: -14.4%
6,CCCCOc1ccc(C(=O)NCC2(N3CCOCC3)CCCCC2)cc1,inactive: -4.37%
7,O=P1(N(CCCl)CCCl)SCCCS1,inactive: 2.15%
8,CCOc1ccc(C)cc1CN(CCCl)CCCl,inactive: 1.74%
9,CCOC(=O)N1CCC(Nc2ccc(OC)cc2)CC1,inactive: 4.86%
10,O=C1C(O)=C([N+](=O)[O-])C(=O)C(O)=C1[N+](=O)[O-],inactive: -1.93%
11,COc1ccc(Cl)cc1C(=O)NCC1(N2CCOCC2)CCCCC1,inactive: -6.33%
12,O=C(OC1CN2CCC1CC2)C1c2ccccc2Oc2ccccc21 (stereo not given),inactive: -10.5%
13,N#CC1(Nc2ccccc2)CCN(Cc2ccccc2)CC1,inactive: 3.06%
14,O=C(NCC1(N2CCCCC2)CCCCC1)c1ccc(Cl)s1,inactive: -13.6%
15,O=C(NCC1(N2CCOCC2)CCCCC1)c1cc2ccccc2o1,inactive: -16.5%
16,Cc1cc(C)cc(N(C(=O)c2ccccc2)C2CCN(C(=O)OC(C)(C)C)CC2)c1,inactive: -33.3%
17,O=C(NCC1(N2CCCCC2)CCCCC1)c1ccc(Cl)nc1,inactive: 11.7%
18,CCOC(=O)N1CCC(=O)CC1,inactive: 3.82%
19,Cc1cccc(NC2(C#N)CCN(Cc3ccccc3)CC2)c1,inactive: -11.7%
20,O=C(NCC1(N2CCCCC2)CCCCC1)c1cccs1,inactive: 4.44%
21,O=C(NCC1(N2CCCCC2)CCCCC1)c1ccc(=O)[nH]c1,inactive: -5.89%
22,CC(C)(C)OC(=O)N1CCC(N(C(=O)c2ccccc2)c2ccc(F)cc2)CC1,inactive: 2.87%

row,SMILES,"activity change, negative = inhibition"
1,COc1ccc(C(=O)NCC2(N3CCCCC3)CCCCC2)c(OC)c1OC,inactive: 11.8%
2,COc1ccc(C(=O)NCC2(N3CCCCC3)CCCCC2)cc1,inactive: -5.79%
3,CCCOc1ccc(C(=O)NCC2(N(C)C)CCCCC2)cc1OC,inactive: 13.6%
4,Cc1ccc(C(=O)NCC2(N(C)C)CCCCC2)o1,inactive: 0.959%
5,CCCCOc1ccccc1C(=O)NCC1(N2CCOCC2)CCCCC1,inactive: -29.5%
6,O=[N+]([O-])c1cc([N+](=O)[O-])c(Nc2ccc(Cl)cc2)c([N+](=O)[O-])c1,inactive: -5.03%
7,O=C(NCC1(N2CCCCC2)CCCCC1)c1cncc(Br)c1,inactive: -5.74%
8,CN1CCC(Nc2cccc(F)c2)CC1,inactive: -1.62%
9,O=C(OC1CN2CCC1CC2)c1ccc([N+](=O)[O-])cc1 (stereo not given),inactive: -18.9%
10,O=C(NCC1(N2CCOCC2)CCCCC1)c1cc(F)c(F)cc1Cl,inactive: -4.36%
11,COc1cc(OC)c(C(=O)NCC2(N(C)C)CCCCC2)cc1OC,inactive: 0.415%
12,CN(C)c1cccc(C(=O)NCC2(N3CCCCC3)CCCCC2)c1,inactive: 6.77%
13,O=[N+]([O-])c1cc([N+](=O)[O-])c(OC2CCCCC2O)c([N+](=O)[O-])c1 (stereo not given),inactive: -8.07%
14,COc1ccc(CN(CCCl)CCCl)cc1Cl,inactive: -10.9%
15,CC(C)c1ccc(C(=O)NCC2(N3CCOCC3)CCCCC2)cc1,inactive: -22.8%
16,COc1ccc(NC2CCN(C(=O)OC(C)(C)C)CC2)cc1,inactive: 1.69%
17,O=C(NCC1(N2CCOCC2)CCCCC1)c1cc(=O)[nH]c2ccccc12,inactive: 3.49%
18,COc1cc(C(=O)NCC2(N3CCCCC3)CCCCC2)ccc1OC(F)F,inactive: -12.3%
19,O=C(NCC1(N2CCCCC2)CCCCC1)c1cccc(C(F)(F)F)c1,inactive: -10.6%
20,CCCOc1cccc(C(=O)NCC2(N3CCOCC3)CCCCC2)c1,inactive: -16.4%
21,O=[N+]([O-])c1cc([N+](=O)[O-])c(NCC2CCS(=O)(=O)C2)c([N+](=O)[O-])c1 (stereo not given),inactive: -20%
22,CSc1ccc(C(=O)NCC2(N3CCOCC3)CCCCC2)cc1,inactive: -7.12%

row,SMILES,"activity change, negative = inhibition"
1,O=C(NCC1(N2CCCCC2)CCCCC1)c1cccc([N+](=O)[O-])c1,inactive: 3.09%
2,N#CC1(Nc2ccccc2)CCN(CCc2ccccc2)CC1,inactive: -6.74%
3,CCN1CCC(Nc2ccc(Cl)cc2)CC1,inactive: 1.5%
4,O=C(NCC1(N2CCCCC2)CCCCC1)c1ccc(OC(F)F)cc1,inactive: 2.96%
5,Cc1cc(N(CCCl)CCCl)ccc1C=O,inactive: -5.84%
6,CCCN1CCC(Nc2cc(OC)cc(OC)c2)CC1,inactive: -11.5%
7,c1ccc(CN2CCC(Nc3ccccc3)CC2)cc1,inactive: -0.615%
8,CN(C)C1(CNC(=O)c2cccc(C#N)c2)CCCCC1,inactive: -0.849%
9,CCOC(=O)C(CC)C1=NC(C)(C)Cc2ccccc21.O=[N+]([O-])c1cc([N+](=O)[O-])c(O)c([N+](=O)[O-])c1 (stereo not given),inactive: -0.518%
10,N#Cc1ccc(C(=O)NCC2(N3CCCCC3)CCCCC2)cc1,inactive: -30.4%
11,O=C(O)c1cccc(Nc2c([N+](=O)[O-])cc([N+](=O)[O-])cc2[N+](=O)[O-])c1,inactive: -5.45%
12,O=C(OC1CN2CCC1CC2)C1c2ccccc2C=Cc2ccccc21 (stereo not given),inactive: -6.91%
13,CCc1cc(C(=O)NCC2(N3CCCCC3)CCCCC2)sc1C,inactive: 1.27%
14,N/C(=N\O)c1c(N)no[n+]1[O-],inactive: -18.2%
15,CCOC(=O)N1CCC(Nc2ccc(C)cc2)CC1,inactive: 14%
16,COc1ccc(C(=O)NCC2(N3CCOCC3)CCCCC2)cc1OC,inactive: -8.26%
17,CCC(=O)N(c1ccccc1)C1CCNCC1,inactive: 27.1%
18,O=C(NCC1(N2CCOCC2)CCCCC1)c1cc(Br)ccc1Cl,inactive: 3.79%
19,COc1cc(C(=O)NCC2(N3CCOCC3)CCCCC2)cc(OC)c1C,inactive: 1.28%
20,CN1CCC(Nc2ccc(Cl)cc2)CC1,inactive: 0.175%
21,CCC(CO)(C(=O)OC1CN2CCC1CC2)c1ccccc1 (stereo not given),inactive: 2.03%
22,COc1cccc(C(=O)N(c2cc(C)cc(C)c2)C2CCN(C(=O)OC(C)(C)C)CC2)c1,inactive: -23.4%

row,SMILES,"activity change, negative = inhibition"
1,COc1cc(OC)cc(C(=O)NCC2(N3CCOCC3)CCCCC2)c1,inactive: -15.4%
2,CCCOc1ccc(C(=O)NCC2(N(C)C)CCCCC2)cc1,inactive: -17.6%
3,O=C(O)C1(Nc2ccccc2)CCN(Cc2ccccc2)CC1,inactive: 4.31%
4,CC(C)(C)OC(=O)N1CCC(Nc2ccccc2)CC1,inactive: -4.19%
5,CN1CCC(Nc2ccc(F)c(Cl)c2)CC1,inactive: -9.43%
6,CCOc1ncccc1C(=O)NCC1(N2CCOCC2)CCCCC1,inactive: -3.78%
7,Cn1c(=O)[nH]cc(N(CCCl)CCCl)c1=O,inactive: -2.41%
8,CN(C)c1ccc(C(=O)NCC2(N3CCCCC3)CCCCC2)cc1,inactive: -14.8%
9,O=C(NCC1(N2CCCCC2)CCCCC1)c1ccco1,inactive: -1.58%
10,Cc1ccccc1C(=O)NCC1(N(C)C)CCCCC1,inactive: 2.36%
11,CCN1CCC(Nc2cccc(F)c2)CC1,inactive: -6.71%
12,Cc1ccccc1NC1(C#N)CCN(Cc2ccccc2)CC1,inactive: 13.2%
13,Cc1ccc(NC2(C#N)CCN(Cc3ccccc3)CC2)cc1,inactive: -20.7%
14,Cc1ccc(Nc2c([N+](=O)[O-])cc([N+](=O)[O-])cc2[N+](=O)[O-])cc1,inactive: 3.15%
15,Fc1ccccc1NC1CCN(Cc2ccccc2)CC1,inactive: -1.04%
16,Cc1ccc(C(=O)NCC2(N3CCCCC3)CCCCC2)o1,inactive: 3.49%
17,COc1cc(OC)cc(C(=O)NCC2(N3CCCCC3)CCCCC2)c1,inactive: 5.37%
18,CC(=O)N(c1ccccc1)C1CCNCC1,inactive: 0.195%
19,CN(C)C1(CNC(=O)c2ccc(C(C)(C)C)cc2)CCCCC1,inactive: -17.6%
